The record followed here is publication PMC8044178, “Structural basis of norepinephrine recognition and transport inhibition in neurotransmitter transporters” (Nature Communications, 2021).

By UniProt entry, the sequences of proteins in these tests, tags left out. Chains listed by the source or under a name are the forms on record and can include a tag or linker.
UniProt Q7K4Y6, other isoform, or with tags, fused parts or gaps V74A/A117S/DEL164-191/L415A/A428S/F471L: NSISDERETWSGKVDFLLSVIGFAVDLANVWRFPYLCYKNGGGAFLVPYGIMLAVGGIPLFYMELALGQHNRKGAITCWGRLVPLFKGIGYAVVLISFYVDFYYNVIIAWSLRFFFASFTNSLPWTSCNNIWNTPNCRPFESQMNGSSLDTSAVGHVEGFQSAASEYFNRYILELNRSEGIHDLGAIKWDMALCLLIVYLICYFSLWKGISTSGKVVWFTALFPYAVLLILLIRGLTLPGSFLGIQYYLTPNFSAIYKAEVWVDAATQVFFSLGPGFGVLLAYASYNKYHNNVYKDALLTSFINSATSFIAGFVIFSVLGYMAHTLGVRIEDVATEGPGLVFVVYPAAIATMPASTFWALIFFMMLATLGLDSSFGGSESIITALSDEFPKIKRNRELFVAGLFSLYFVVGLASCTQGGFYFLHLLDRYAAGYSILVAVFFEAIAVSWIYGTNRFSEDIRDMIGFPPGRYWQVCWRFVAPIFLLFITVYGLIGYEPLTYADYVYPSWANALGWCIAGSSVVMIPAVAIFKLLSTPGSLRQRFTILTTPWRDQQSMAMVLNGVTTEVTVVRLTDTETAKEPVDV

For the assay, the target named is T1, dDATfc A117S/A428S (Drosophila melanogaster, UniProt Q7K4Y6, A117S/A428S/DEL164-191/F471L/L415A/V74A).
T1 construct: expressed in transfected cells; host or cells: HEK293S GnTI- cells, transient transfection with pEG-BacMam plasmid
The format is cell-based. As to conditions: double mutant vs dDATfc.

Turning to `COc1cccc(C2(O)CCCCC2CN(C)C)c1` (stereo not shown) [Tramadol, tramadol], the “increase in IC50 values, combination of A428S and A117S” value is on record as ~ 5 fold.
